Laboratory results from ChEMBL document CHEMBL1146958, “The SAR of 4-substituted (6,6-bicyclic) piperidine cathepsin S inhibitors” (Bioorg Med Chem Lett, 2006).

Chains of the proteins cited; added tags and fusions are not shown.
UniProt P25774, whole entry: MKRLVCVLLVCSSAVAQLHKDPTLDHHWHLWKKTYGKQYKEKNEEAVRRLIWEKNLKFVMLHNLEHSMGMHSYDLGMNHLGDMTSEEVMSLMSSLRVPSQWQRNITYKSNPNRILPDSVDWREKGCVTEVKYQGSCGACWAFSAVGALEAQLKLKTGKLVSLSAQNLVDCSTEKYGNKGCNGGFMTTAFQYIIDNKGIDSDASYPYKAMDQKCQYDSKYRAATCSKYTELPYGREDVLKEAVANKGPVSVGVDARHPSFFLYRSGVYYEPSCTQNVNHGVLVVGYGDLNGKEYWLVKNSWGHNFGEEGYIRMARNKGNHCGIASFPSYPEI

What follows are compounds tested against Cathepsin S (Homo sapiens, UniProt P25774).
With `O=C1COc2ccccc2N1C1CCN(CCCn2nc(-c3ccc(C(F)(F)F)cc3)c3c2CCNC3)CC1` the IC50 was 1800 nM.
Compound `CC(C)(C)OC(=O)N1CCc2c(c(-c3ccc(C(F)(F)F)cc3)nn2CCCN2CCC(N3C(=O)COc4ccccc43)CC2)C1` has an IC50 of 900 nM.
Compound `CS(=O)(=O)N1CCc2c(c(-c3ccc(Br)cc3)nn2CC(O)CN2CCC(N3C(=O)OCc4ccccc43)CC2)C1` (stereo not given) has an IC50 of 133 nM.
With `CC(C)(C)OC(=O)N1CCc2c(c(-c3ccc(C(F)(F)F)cc3)nn2CC(O)CN2CCC(N3C(=O)COc4ccccc43)CC2)C1` (stereo not given) the IC50 was 826 nM.
`O=C1COc2ccccc2N1C1CCN(CC(O)Cn2nc(-c3ccc(C(F)(F)F)cc3)c3c2CCNC3)CC1` (stereo not given) gave an IC50 of 1920 nM.
